# Values quoted from earlier work, collected in US9987257B2, “Pediatric oral suspension formulations of amoxicillin and clavulanate potassium and method for using same” (priority 2012, dated 2018).
# Key:
# pediatric patients = details: human, in vivo
# children = details: in vivo
substance,measurement,setting,value
Amoxicillin-Clavulanate,pediatric patients experiencing some diarrhea and/or vomiting,pediatric patients,~20%
same,Mastoiditis,children,0 number of children (percent)
same,Treatment discontinued because of rash,children,"**In each group, treatment was discontinued in one child because or rash."
same,Treatment discontinued because of vomiting,children,"∥In the amoxicillin-clavulanate group, treatment was discontinued in one child because of vomiting."
